# Where two headings read alike, the source gives them in different places.
# Tests used:
# fungi = assay: Fungicidal activity of pasteurisation adjuncts at 50° C. versus 30° C. (MIC50); type: cell-based
# [1] = tested on: yeast Saccharomyces cerevisiae X2180-1B; settings: RTD tea
smiles,measurement,setting,value
CCCCCCCCCCCC(=O)O [Lauric acid],fungicidal activity at 30° C.,fungi; 30° C.,no fungicidal activity
same,fungicidal activity when heated to 50° C.,fungi; 50° C.,significant fungicidal activity
same,effect on yeast growth at low temperature,"[1]; 20° C., adjunct 0-12 ppm, cinnamic acid 0-60 ppm",little effect
same,effect on yeast growth at low temperature,"[1]; FIGS. 23, 24, adjunct alone 0-200 ppm, low temperature",little effect
same,prevention of yeast growth by low levels of the adjunct,[1]; adjunct 0-12 ppm in combination with cinnamic acid 0-60 ppm,prevention of yeast growth

# Source: patent publication US6599548B2, “Ambient stable beverage” (priority 2000, dated 2003)
